# Molecular target: Diacylglycerol lipase-alpha (Homo sapiens, UniProt Q9Y4D2)
# Protein sequences, listed by entry. Tags and fused reporters are not part of them.
# UniProt Q9Y4D2, whole entry, looked up: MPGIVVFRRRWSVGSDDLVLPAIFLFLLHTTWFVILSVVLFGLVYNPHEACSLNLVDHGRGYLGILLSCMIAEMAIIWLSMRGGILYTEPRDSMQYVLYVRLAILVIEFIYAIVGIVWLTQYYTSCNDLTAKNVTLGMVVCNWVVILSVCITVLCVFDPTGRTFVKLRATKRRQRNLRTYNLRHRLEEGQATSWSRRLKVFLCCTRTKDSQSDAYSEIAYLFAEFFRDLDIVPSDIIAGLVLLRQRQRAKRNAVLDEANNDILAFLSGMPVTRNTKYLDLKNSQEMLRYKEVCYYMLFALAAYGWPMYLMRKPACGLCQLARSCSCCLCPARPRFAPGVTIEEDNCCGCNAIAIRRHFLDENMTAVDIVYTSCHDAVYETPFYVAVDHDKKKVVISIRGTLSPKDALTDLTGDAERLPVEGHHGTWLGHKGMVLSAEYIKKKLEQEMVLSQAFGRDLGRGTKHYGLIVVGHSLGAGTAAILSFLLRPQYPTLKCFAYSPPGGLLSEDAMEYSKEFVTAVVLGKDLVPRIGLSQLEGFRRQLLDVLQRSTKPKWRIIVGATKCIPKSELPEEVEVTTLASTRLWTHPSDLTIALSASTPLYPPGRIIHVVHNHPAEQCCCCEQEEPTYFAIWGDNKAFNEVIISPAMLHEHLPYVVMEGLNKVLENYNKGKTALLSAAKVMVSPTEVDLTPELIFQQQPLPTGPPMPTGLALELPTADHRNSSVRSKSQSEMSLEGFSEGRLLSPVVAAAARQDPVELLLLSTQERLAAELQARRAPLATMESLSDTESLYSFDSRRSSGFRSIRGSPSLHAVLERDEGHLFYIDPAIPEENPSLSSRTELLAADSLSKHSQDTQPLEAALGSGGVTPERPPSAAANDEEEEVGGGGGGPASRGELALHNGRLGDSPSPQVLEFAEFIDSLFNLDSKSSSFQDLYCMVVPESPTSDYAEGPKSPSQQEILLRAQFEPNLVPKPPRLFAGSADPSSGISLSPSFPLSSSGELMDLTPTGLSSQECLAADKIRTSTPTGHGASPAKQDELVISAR
compound,measurement,value
CCCCCCC/C=C\CCCCCCCC(=O)OC(COC(C)C)COP(C)(=O)F (stereo unspecified),IC50,690 nM

# — ChEMBL document CHEMBL4425142, “Inhibitors of diacylglycerol lipases in neurodegenerative and metabolic disorders” (Bioorg Med Chem Lett, 2016)
